# PubChem BioAssay AID602142 (NMMLSC, 2011)
# This is a selection; strong and weak results do not stand in their true shares. Some tests of the compounds listed are not included; inactive here does not mean inactive elsewhere. Activity calls are given as the source filed them. No rule for the calls is given here.
# Target: Lethal factor (Bacillus anthracis) (UniProt P15917)
# Experiment: Bacillus anthracis LF protease inhibitors, confirmation, biochemical, multiplex microsphere, cherry pick 1 (AID 602142)
# Conditions: multiplex microsphere protease cleavage assay, at 10 µM, hits give high values
compound,measurement,value
CN1[C@@H]2CC[C@H]1CC(OC(=O)C(O)(c1ccccc1)c1ccccc1)C2 (stereo partly specified),inhibition,inactive: 6.1%
